Test results from patent US11285212B2, “Targeted nanoparticles” (California Institute Of Technology, priority 2013, dated 2022).

Columns and labels:
BT-474 xenograft tumors = conditions: 2.9 mg/kg
Procedure: Treatments began on day 1. […] All treatments were freshly prepared and given via intravenous tail vein injection. Injections were standardized at 150 μl per 20 g body weight of mice. […] Tumor sizes were recorded three times a week using caliper measurements (length×width^2/2) and health of the animals was continuously monitored. Animals were euthanized when tumor volumes exceeded 1000 mm^3. Six weeks after beginning of the treatment, animals were euthanized by CO2 asphyxiation.

MDA-MB-231 = assay: Cytotoxicity assay, MDA-MB-231; format: cell-based; conditions: MDA-MB-231, HER2 −, 72 h; CPT-containing items on CPT content
MCF-7 = assay: Cytotoxicity assay, MCF-7; format: cell-based; conditions: MCF-7, HER2 −, 72 h; CPT-containing items on CPT content
[1] = tested on: breast cancer cell lines (BT-474, SKBR-3, MCF-7, MDA-MB-231); assay: Cytotoxicity assay, breast cancer cell lines; format: cell-based; conditions: concentrations of up to 0.5 μM
SKBR-3 = assay: Cytotoxicity assay, SKBR-3; format: cell-based; conditions: SKBR-3, HER2 +, 72 h; CPT-containing items on CPT content
BT-474 = assay: Cytotoxicity assay, BT-474; format: cell-based, human; conditions: BT-474, HER2 +, 72 h; CPT-containing items on CPT content

Herceptin: human IgG1 antibody (Herceptin®)
Nend, animals surviving to end of study (BT-474 xenograft tumors; i.v. once per week for 2 weeks): 6/6 | Mean tumor volume (BT-474 xenograft tumors; once per week for 2 weeks): 278 mm^3 | Median tumor volume (BT-474 xenograft tumors; once per week for 2 weeks): 245 mm^3 | NTRD, treatment related death (BT-474 xenograft tumors; once per week for 2 weeks): 0/0/0 | Neuthan, euthanized due to exceeding tumor size limit of 1000 mm^3 (BT-474 xenograft tumors; once per week for 2 weeks): 0/0/0 | result compared to control group (BT-474 xenograft tumors; once per week for 2 weeks): significant compared to control group | IC50 (MDA-MB-231): no effect | IC50 (MCF-7): no effect | effects in HER2− cell lines [1]: no effects observed | IC50 (SKBR-3): no value^a | IC50 (BT-474): no value^a
